# According to US20080021015A1, “Use as medicine of a compound restoring active principles in vivo” (DOSPHARMA, priority 2000, published 2008):
# Experiments:
# [1] = 37° C., one hour
# rat hepatocyte culture = details: over 24 hours
# [2] = rats, orally, 50 mg/kg, plasmatic metformin
substance,measurement,setting,value
arginine hemisuccinimide-metformin hemisuccinate,release of the active principles in intestinal juice,[1],Immediate release of the metformin without modifying the arginine hemisuccinimide part
same,release of arginine in rat hepatocyte culture,rat hepatocyte culture,Slow release of arginine over 24 hours
same,bioavailable fraction,[2],75%
same,concentration peak,[2],2900 ng/mL
same,half-life,[2],2.6 h
same,time of concentration peak,[2],60 min
same,solubility in organic solvents,organic solvents,insoluble in organic solvents
same,solubility in water,water,soluble in water
